Experimental findings from US20210009702A1 (TUSK THERAPEUTICS, published 2021) are described below.

Experiment [1] deals with T1, human CD25 expressed on cells (human, UniProt P01589 22-272).
T1 construct: Endogenous CD25 on human cell lines and primary cells; also called CD25 on human in vitro differentiated Treg cells; CD25 on SU-DHL-1 cells
T1 sequence: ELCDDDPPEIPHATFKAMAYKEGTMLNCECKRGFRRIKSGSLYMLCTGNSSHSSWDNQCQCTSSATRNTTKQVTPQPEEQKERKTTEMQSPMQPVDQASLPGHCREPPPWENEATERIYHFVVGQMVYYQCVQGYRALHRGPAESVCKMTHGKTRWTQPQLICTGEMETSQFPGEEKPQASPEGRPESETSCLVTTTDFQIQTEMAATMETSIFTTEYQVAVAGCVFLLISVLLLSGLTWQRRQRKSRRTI
As to the kind of experiment: flow cytometry on human in vitro differentiated Treg cells, Alexa Fluor 647 anti-human IgG secondary. In general terms: In flow cytometry, cells or beads pass a laser one at a time.

Experiment [2] deals with T2, recombinant human CD25 his tagged (human, UniProt P01589 22-240).
T2 construct: also called rhCD25-his; not shown: His tag
T2 sequence: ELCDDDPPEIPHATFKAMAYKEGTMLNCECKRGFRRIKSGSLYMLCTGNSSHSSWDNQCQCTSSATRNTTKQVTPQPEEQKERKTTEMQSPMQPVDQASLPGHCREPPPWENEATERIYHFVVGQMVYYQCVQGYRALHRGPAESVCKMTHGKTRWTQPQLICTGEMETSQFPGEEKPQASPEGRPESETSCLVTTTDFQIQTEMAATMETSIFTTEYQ
The experiment in a line: BLI (ForteBio Octet), rhCD25-His on Ni-NTA sensors, IgG in solution, avidity, 1:1 fit.

B1: aCD25-a-634 (antibody, V domains shown)
VH: QVQLVQSGAEVKKPGASVKVSCKASGYTFTGYYMHWVRQAPGQGLEWMGSINPNSGGTNYAQKFQGRVTMTRDTSISTAYMELSRLRSDDTAVYYCARDGLMDVWGQGTAVTVSS
VL: [about 100 residues not printed]PFTFGGGTKVEIK
notes: also called anti-human CD25 antibody; not shown: human IgG1 heavy chain constant region, […]; human kappa light chain constant region, […]
Take B1: the EC50 (read off the curve) (in general, the concentration giving half of the maximal effect) in experiment [1] is around 1 µg/mL. The Kd in experiment [2] was 1.56 nM.
